Drawing on patent US9242993B2, “Morpholino substituted bicyclic pyrimidine urea or carbamate derivatives as mTOR inhibitors” (CELLZOME LIMITED, priority 2011, dated 2016), this text covers IC50 for 28 compounds.

By UniProt entry, the sequences of proteins in these tests, tags left out. Where a name states a change or a piece, a line headed by the entry shows the natural chain unless it says otherwise.
UniProt P42336, whole entry: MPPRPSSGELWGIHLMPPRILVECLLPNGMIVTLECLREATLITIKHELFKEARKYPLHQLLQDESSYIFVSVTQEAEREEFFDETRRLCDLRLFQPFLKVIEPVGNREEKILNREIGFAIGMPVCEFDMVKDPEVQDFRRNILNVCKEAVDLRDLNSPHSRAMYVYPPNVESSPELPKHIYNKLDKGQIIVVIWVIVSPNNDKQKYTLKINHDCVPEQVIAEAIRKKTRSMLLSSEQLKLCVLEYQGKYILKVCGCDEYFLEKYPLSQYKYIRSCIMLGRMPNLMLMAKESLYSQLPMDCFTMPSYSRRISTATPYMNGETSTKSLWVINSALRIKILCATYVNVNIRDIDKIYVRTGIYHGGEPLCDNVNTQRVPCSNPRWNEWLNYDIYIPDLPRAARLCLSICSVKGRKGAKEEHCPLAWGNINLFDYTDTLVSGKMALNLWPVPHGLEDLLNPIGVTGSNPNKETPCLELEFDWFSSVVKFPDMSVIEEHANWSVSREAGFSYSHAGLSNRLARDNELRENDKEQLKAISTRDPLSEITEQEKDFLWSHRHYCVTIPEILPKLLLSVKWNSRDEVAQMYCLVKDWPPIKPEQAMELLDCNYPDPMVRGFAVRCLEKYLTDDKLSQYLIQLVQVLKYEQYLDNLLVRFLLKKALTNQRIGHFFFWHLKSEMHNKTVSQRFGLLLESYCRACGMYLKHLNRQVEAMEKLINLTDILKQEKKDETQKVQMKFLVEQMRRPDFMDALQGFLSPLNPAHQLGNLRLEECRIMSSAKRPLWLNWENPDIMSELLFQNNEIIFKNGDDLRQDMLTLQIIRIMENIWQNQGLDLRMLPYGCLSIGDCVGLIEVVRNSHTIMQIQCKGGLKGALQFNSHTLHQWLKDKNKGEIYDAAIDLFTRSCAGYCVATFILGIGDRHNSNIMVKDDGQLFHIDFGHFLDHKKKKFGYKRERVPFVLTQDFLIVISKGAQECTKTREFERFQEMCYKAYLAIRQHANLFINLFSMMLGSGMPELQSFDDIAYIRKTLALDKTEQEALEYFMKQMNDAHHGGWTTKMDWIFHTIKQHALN
UniProt P42338: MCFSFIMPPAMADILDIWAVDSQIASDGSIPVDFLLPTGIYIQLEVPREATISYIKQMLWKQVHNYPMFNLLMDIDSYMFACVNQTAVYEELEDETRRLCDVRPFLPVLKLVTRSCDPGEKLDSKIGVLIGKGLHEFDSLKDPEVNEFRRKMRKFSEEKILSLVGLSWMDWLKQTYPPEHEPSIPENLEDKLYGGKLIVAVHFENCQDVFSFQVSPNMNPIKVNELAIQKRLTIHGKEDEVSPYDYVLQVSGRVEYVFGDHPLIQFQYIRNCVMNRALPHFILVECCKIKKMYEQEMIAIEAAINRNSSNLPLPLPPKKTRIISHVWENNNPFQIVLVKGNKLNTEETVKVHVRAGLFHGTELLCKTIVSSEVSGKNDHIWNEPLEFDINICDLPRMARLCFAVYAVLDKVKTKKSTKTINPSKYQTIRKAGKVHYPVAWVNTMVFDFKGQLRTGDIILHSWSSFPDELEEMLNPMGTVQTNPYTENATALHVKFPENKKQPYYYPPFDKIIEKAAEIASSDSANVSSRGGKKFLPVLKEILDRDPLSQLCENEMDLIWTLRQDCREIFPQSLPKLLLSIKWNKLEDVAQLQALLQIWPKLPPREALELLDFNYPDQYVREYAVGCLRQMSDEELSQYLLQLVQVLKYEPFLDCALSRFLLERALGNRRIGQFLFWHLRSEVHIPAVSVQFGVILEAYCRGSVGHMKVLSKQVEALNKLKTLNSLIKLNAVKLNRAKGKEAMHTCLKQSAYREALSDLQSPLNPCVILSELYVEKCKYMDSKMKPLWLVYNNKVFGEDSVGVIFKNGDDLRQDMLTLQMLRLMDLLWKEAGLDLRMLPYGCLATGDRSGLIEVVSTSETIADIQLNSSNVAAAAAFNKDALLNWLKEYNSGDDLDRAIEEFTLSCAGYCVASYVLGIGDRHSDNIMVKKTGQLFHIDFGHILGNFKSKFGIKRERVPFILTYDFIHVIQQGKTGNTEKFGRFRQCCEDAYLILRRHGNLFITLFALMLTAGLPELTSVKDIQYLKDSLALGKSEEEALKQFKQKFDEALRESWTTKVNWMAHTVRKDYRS
UniProt P48736: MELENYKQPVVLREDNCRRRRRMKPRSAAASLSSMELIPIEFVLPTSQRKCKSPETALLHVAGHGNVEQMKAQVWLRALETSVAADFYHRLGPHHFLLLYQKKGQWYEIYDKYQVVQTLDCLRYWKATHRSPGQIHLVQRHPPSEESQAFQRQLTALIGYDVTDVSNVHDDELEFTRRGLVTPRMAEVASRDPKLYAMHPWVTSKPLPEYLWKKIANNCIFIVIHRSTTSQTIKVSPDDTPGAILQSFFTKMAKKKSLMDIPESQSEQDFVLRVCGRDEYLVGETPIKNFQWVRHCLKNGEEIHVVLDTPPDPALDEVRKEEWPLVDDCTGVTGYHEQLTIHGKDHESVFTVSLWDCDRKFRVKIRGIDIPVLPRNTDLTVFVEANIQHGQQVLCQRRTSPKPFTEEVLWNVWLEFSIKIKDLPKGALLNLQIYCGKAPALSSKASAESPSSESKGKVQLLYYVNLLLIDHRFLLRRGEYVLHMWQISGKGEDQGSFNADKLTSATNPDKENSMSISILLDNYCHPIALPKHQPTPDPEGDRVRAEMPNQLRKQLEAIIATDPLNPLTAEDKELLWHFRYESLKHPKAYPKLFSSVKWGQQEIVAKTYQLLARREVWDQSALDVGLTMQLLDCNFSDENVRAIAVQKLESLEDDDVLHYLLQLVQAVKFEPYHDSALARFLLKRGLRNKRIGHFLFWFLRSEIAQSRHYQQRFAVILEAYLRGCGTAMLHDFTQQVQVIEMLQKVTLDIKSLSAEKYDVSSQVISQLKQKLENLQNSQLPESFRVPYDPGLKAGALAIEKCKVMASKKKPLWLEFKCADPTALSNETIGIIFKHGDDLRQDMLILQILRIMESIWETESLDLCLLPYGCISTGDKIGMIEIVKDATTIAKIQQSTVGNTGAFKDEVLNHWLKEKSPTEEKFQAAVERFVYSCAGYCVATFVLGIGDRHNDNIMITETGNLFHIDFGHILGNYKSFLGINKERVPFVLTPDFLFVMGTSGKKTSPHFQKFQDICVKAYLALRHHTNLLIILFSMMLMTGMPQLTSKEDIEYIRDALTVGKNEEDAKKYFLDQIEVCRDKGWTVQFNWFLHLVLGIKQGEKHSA

Common to all, as to assay type: binding
One test addresses PI3K alpha (PI3Ka) (Homo sapiens, UniProt P42336). In words: kinobeads assay, PI3K alpha. As to conditions: Jurkat cell lysate, read-out: PI3Ka inhibition value (IC50), activity level.
The target in another test is PI3K beta (PI3 Kb) (Homo sapiens, UniProt P42338). In words: kinobeads assay, PI3K beta. The following applies: Jurkat cell lysate, read-out: PI3Kb inhibition value (IC50), activity level.
For another test, the target named is PI3K gamma (PI3 Kg) (Homo sapiens, UniProt P48736). Kind of test: kinobeads assay, PI3K gamma. As to conditions: Jurkat cell lysate, read-out: PI3Kg inhibition value (IC50), activity level.

With `O=C(NCCF)Nc1ccc(-c2nc3c(c(N4CC5CCC(C4)O5)n2)CS(=O)(=O)C3)cc1` [Example 22, 1-(4-(4-(8-oxa-3-azabicyclo[3.2.1]octan-3-yl)-6,6-dioxido-5,7-dihydrothieno[3,4-d]pyrimidin-2-yl)phenyl)-3-(2-fluoroethyl)urea], at PI3K alpha (PI3Ka), the IC50 is above 10 µM.
In the case of `CNC(=O)Nc1ccc(-c2nc(N3CCOC[C@@H]3C)c3c(n2)C(C)(C)S(=O)(=O)C3C)cc1` (stereo partly drawn) [Example 77, 1-methyl-3-(4-(5,7,7-trimethyl-4-((S)-3-methylmorpholino)-6,6-dioxido-5,7-dihydrothieno[3,4-d]pyrimidin-2-yl)phenyl)urea], the IC50 on PI3K alpha (PI3Ka), at PI3K beta (PI3 Kb) and at PI3K gamma (PI3 Kg) was above 10 µM each time.
For `O=C(NCCCF)Nc1ccc(-c2nc3c(c(N4CC5CCC(C4)O5)n2)CS(=O)(=O)C3)cc1` [Example 29, 1-(4-(4-(8-oxa-3-azabicyclo[3.2.1]octan-3-yl)-6,6-dioxido-5,7-dihydrothieno[3,4-d]pyrimidin-2-yl)phenyl)-3-(3-fluoropropyl)urea], the IC50 on PI3K alpha (PI3Ka) was above 10 µM.
As to `O=C(Nc1ccc(-c2nc3c(c(N4CC5CCC(C4)O5)n2)CS(=O)(=O)C3)cc1)NC1CC1` [Example 20, 1-(4-(4-(8-oxa-3-azabicyclo[3.2.1]octan-3-yl)-6,6-dioxido-5,7-dihydrothieno[3,4-d]pyrimidin-2-yl)phenyl)-3-cyclopropylurea], the IC50 on PI3K alpha (PI3Ka) was above 10 µM.
Still for that read-out and setting: next, `C[C@H]1COCCN1c1nc(-c2ccc(NC(=O)NC3CC3)cc2)nc2c1S(=O)(=O)CC2` [Example 5, (S)-1-cyclopropyl-3-(4-(4-(3-methylmorpholino)-5,5-dioxido-6,7-dihydrothieno[3,2-d]pyrimidin-2-yl)phenyl)urea]: above 10 µM; `CC1c2c(nc(-c3ccc(NC(=O)NC4CC4)cc3)nc2N2CCOC[C@@H]2C)CS1(=O)=O` (mixture of isomers) [Example 6, 1-cyclopropyl-3-(4-(5-methyl-4-((S)-3-methylmorpholino)-6,6-dioxido-5,7-dihydrothieno[3,4-d]pyrimidin-2-yl)phenyl)urea]: 1 to 10 µM; `C[C@H]1COCCN1c1nc(-c2ccc(NC(=O)NC3CC3)cc2)nc2c1CS(=O)(=O)CC2` [Example 4, (S)-1-cyclopropyl-3-(4-(4-(3-methylmorpholino)-6,6-dioxido-7,8-dihydro-5H-thiopyrano[4,3-d]pyrimidin-2-yl)phenyl)urea]: above 10 µM.
Take `C[C@H]1COCCN1c1nc(-c2ccc(NC(=O)NCC(F)F)cc2)nc2c1CS(=O)(=O)C2` [Example 23, (S)-1-(2,2-difluoroethyl)-3-(4-(4-(3-methylmorpholino)-6,6-dioxido-5,7-dihydrothieno[3,4-d]pyrimidin-2-yl)phenyl)urea]: the IC50 at PI3K alpha (PI3Ka) is above 10 µM.
For the compound `CNC(=O)Nc1ccc(-c2nc(N3CCOC[C@@H]3C)c3c(n2)C(C)(C)S(=O)(=O)C3C)c(F)c1` (stereo partly drawn) [Example 78, 1-(3-fluoro-4-(5,7,7-trimethyl-4-((S)-3-methylmorpholino)-6,6-dioxido-5,7-dihydrothieno[3,4-d]pyrimidin-2-yl)phenyl)-3-methylurea], the IC50 at PI3K alpha (PI3Ka), on PI3K beta (PI3 Kb) and at PI3K gamma (PI3 Kg) was above 10 µM each time.
Turning to `CC1c2nc(-c3ccc(NC(=O)NC4CC4)cc3)nc(N3CCOC[C@@H]3C)c2CS1(=O)=O` (stereo partly drawn) [Example 7, 1-cyclopropyl-3-(4-(7-methyl-4-((S)-3-methylmorpholino)-6,6-dioxido-5,7-dihydrothieno[3,4-d]pyrimidin-2-yl)phenyl)urea], on PI3K alpha (PI3Ka), the IC50 is above 10 µM.
Same read-out and setting: under `CNC(=O)Nc1ccc(-c2nc3c(c(N4CC5CCC(C4)O5)n2)CS(=O)(=O)C3)cc1` [Example 21, 1-(4-(4-(8-oxa-3-azabicyclo[3.2.1]octan-3-yl)-6,6-dioxido-5,7-dihydrothieno[3,4-d]pyrimidin-2-yl)phenyl)-3-methylurea] stands above 10 µM; under `CC(C)NC(=O)Nc1ccc(-c2nc3c(c(N4CCOC[C@@H]4C)n2)CS(=O)(=O)C3)cc1` [Example 25, (S)-1-isopropyl-3-(4-(4-(3-methylmorpholino)-6,6-dioxido-5,7-dihydrothieno[3,4-d]pyrimidin-2-yl)phenyl)urea], above 10 µM.
For `C[C@@H]1CN(c2nc(-c3ccc(NC(=O)NC4CC4)cc3)nc3c2CS(=O)(=O)C3)C[C@H](C)O1` [Example 19, 1-cyclopropyl-3-(4-(4-((2S,6R)-2,6-dimethylmorpholino)-6,6-dioxido-5,7-dihydrothieno[3,4-d]pyrimidin-2-yl)phenyl)urea], at PI3K alpha (PI3Ka), the IC50 was above 10 µM.
Take `C[C@H]1COCCN1c1nc(-c2ccc(NC(=O)NC3CC3)cc2)nc2c1SCCC2` [Example 8, (S)-1-cyclopropyl-3-(4-(4-(3-methylmorpholino)-7,8-dihydro-6H-thiopyrano[3,2-d]pyrimidin-2-yl)phenyl)urea]: on PI3K alpha (PI3Ka), the IC50 was above 10 µM.
`CCC1COCCN1c1nc(-c2ccc(NC(=O)NC3CC3)cc2)nc2c1CS(=O)(=O)C2` (centres unmarked) [Example 27, 1-cyclopropyl-3-(4-(4-(3-ethylmorpholino)-6,6-dioxido-5,7-dihydrothieno[3,4-d]pyrimidin-2-yl)phenyl)urea]: the IC50 at PI3K alpha (PI3Ka) is above 10 µM.
As for `C[C@@H]1c2c(N3CCOC[C@@H]3C)nc(-c3ccc(NC(=O)NC4CC4)cc3)nc2C(C)(C)S1(=O)=O` [Example 82, 1-cyclopropyl-3-(4-((R)-5,7,7-trimethyl-4-((S)-3-methylmorpholino)-6,6-dioxido-5,7-dihydrothieno[3,4-d]pyrimidin-2-yl)phenyl)urea], the IC50 on PI3K alpha (PI3Ka), on PI3K beta (PI3 Kb) and on PI3K gamma (PI3 Kg) was above 10 µM in each case.
Regarding `C[C@H]1COCCN1c1nc(-c2ccc(NC(=O)Nc3ccncc3)cc2)nc2c1CS(=O)(=O)C2` [Example 35, (S)-1-(4-(4-(3-methylmorpholino)-6,6-dioxido-5,7-dihydrothieno[3,4-d]pyrimidin-2-yl)phenyl)-3-(pyridin-4-yl)urea], the IC50 on PI3K alpha (PI3Ka) is above 10 µM.
The same measure, in the same setting: under `O=C(NCC(F)F)Nc1ccc(-c2nc3c(c(N4CC5CCC(C4)O5)n2)CS(=O)(=O)C3)cc1` [Example 24, 1-(4-(4-(8-oxa-3-azabicyclo[3.2.1]octan-3-yl)-6,6-dioxido-5,7-dihydrothieno[3,4-d]pyrimidin-2-yl)phenyl)-3-(2,2-difluoroethyl)urea] stands above 10 µM; under `C[C@H]1COCCN1c1nc(-c2ccc(NC(=O)NCCCF)cc2)nc2c1CS(=O)(=O)C2` [Example 28, (S)-1-(3-fluoropropyl)-3-(4-(4-(3-methylmorpholino)-6,6-dioxido-5,7-dihydrothieno[3,4-d]pyrimidin-2-yl)phenyl)urea], above 10 µM.
In the case of `CC[C@H]1COCCN1c1nc(-c2ccc(NC(=O)NC)cc2)nc2c1C(C)S(=O)(=O)C2(C)C` (stereo partly drawn) [Example 80, 1-(4-(4-((S)-3-ethylmorpholino)-5,7,7-trimethyl-6,6-dioxido-5,7-dihydrothieno[3,4-d]pyrimidin-2-yl)phenyl)-3-methylurea], the IC50 at PI3K alpha (PI3Ka), on PI3K beta (PI3 Kb) and at PI3K gamma (PI3 Kg) was above 10 µM in each case.
In the case of `O=C(Nc1ccc(-c2nc3c(c(N4C5CCC4COC5)n2)CS(=O)(=O)C3)cc1)NC1CC1` [Example 26, 1-(4-(4-(3-oxa-8-azabicyclo[3.2.1]octan-8-yl)-6,6-dioxido-5,7-dihydrothieno[3,4-d]pyrimidin-2-yl)phenyl)-3-cyclopropylurea], the IC50 at PI3K alpha (PI3Ka) is above 10 µM.
Regarding `CC[C@H]1COCCN1c1nc(-c2ccc(NC(=O)NC)cc2F)nc2c1C(C)S(=O)(=O)C2(C)C` (stereo partly drawn) [Example 79, 1-(4-(4-((S)-3-ethylmorpholino)-5,7,7-trimethyl-6,6-dioxido-5,7-dihydrothieno[3,4-d]pyrimidin-2-yl)-3-fluorophenyl)-3-methylurea], the IC50 on PI3K alpha (PI3Ka), at PI3K beta (PI3 Kb) and at PI3K gamma (PI3 Kg) was above 10 µM in each case.
In the case of `CCNC(=O)Nc1ccc(-c2nc(N3CCOCC3)c3c(n2)C(C)(C)S(=O)(=O)C3)cc1` [Example 76, 1-(4-(7,7-dimethyl-4-morpholino-6,6-dioxido-5,7-dihydrothieno[3,4-d]pyrimidin-2-yl)phenyl)-3-ethylurea], the IC50 at PI3K alpha (PI3Ka), at PI3K beta (PI3 Kb) and on PI3K gamma (PI3 Kg) was above 10 µM throughout.
For the compound `CC1c2c(N3CCOCC3)nc(-c3ccc(NC(=O)NCCF)cc3)nc2C(C)(C)S1(=O)=O` (centres unmarked) [Example 81, 1-(2-fluoroethyl)-3-(4-(5,7,7-trimethyl-4-morpholino-6,6-dioxido-5,7-dihydrothieno[3,4-d]pyrimidin-2-yl)phenyl)urea], the IC50 at PI3K alpha (PI3Ka), at PI3K beta (PI3 Kb) and at PI3K gamma (PI3 Kg) was above 10 µM each time.
For the compound `CC1c2c(nc(-c3ccc(NC(=O)NC4CC4)cc3)nc2N2CCOCC2)CS1(=O)=O` (centres unmarked) [Example 31, 1-cyclopropyl-3-(4-(5-methyl-4-morpholino-6,6-dioxido-5,7-dihydrothieno[3,4-d]pyrimidin-2-yl)phenyl)urea], the IC50 at PI3K alpha (PI3Ka) was above 10 µM.
On to `C[C@H]1COCCN1c1nc(-c2ccc(NC(=O)NC3CC3)cc2)nc2c1CSCC2` [Example 3, (S)-1-cyclopropyl-3-(4-(4-(3-methylmorpholino)-7,8-dihydro-5H-thiopyrano[4,3-d]pyrimidin-2-yl)phenyl)urea], for which the IC50 at PI3K alpha (PI3Ka) was above 10 µM.
For `CC1c2c(N3CCOC[C@@H]3C)nc(-c3ccc(NC(=O)NCCF)cc3)nc2C(C)(C)S1(=O)=O` (stereo partly drawn) [Example 75, 1-(2-fluoroethyl)-3-(4-(5,7,7-trimethyl-4-((S)-3-methylmorpholino)-6,6-dioxido-5,7-dihydrothieno[3,4-d]pyrimidin-2-yl)phenyl)urea], the IC50 at PI3K alpha (PI3Ka), at PI3K beta (PI3 Kb) and on PI3K gamma (PI3 Kg) was above 10 µM each time.
For `C[C@H]1COCCN1c1nc(-c2ccc(NC(=O)Nc3cccnc3)cc2)nc2c1CS(=O)(=O)C2` [Example 36, (S)-1-(4-(4-(3-methylmorpholino)-6,6-dioxido-5,7-dihydrothieno[3,4-d]pyrimidin-2-yl)phenyl)-3-(pyridin-3-yl)urea], the IC50 on PI3K alpha (PI3Ka) was above 10 µM.
